# Reference: publication PMC4266362 (Journal of Medicinal Chemistry, 2014)
# Sequences of proteins named here, by UniProt entry; tags and fusion partners are left off. Residues count along the entry.
# UniProt P43220, 24-463: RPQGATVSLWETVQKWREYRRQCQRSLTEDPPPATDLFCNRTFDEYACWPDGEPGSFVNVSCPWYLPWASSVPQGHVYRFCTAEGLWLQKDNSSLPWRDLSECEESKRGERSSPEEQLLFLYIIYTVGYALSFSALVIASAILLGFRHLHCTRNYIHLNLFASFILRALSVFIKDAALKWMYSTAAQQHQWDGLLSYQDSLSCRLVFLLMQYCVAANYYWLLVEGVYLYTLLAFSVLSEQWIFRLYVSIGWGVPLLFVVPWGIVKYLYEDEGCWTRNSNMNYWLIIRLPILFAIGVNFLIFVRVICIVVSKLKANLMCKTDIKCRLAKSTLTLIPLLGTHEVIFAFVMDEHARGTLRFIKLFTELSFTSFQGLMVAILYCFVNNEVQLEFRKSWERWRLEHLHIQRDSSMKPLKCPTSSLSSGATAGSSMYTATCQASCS
# Biological target: human GLP-1R (Homo sapiens, UniProt P43220)
smiles,measurement,setting,value
CCN1CCC[C@H]1CNC(=O)c1cn(C2CCCC2)c(=O)c2c1c1ccccc1n2C [(S)-8],GLP-1 %max in fold-shift experiment,increased from 100.3,129.6%
same,fold shift of the GLP-1 concentration–response curve,standard fold-shift experiment,~2 fold
